High-throughput results from PubChem.
miR-21 FLuc: miR-21 reporter, rising signal | 340,000 tested, under 10 active | AID 2288 | HeLa miR-21 FLuc reporter, luciferase, 48 h | Potency, µM (titrated, usually from 38.3 µM), for inactives: at the highest dose reporter change, positive = more light; active = well fitted rising curve with a large enough effect; inconclusive = small, poorly fitted or top-dose-only effect; inactive = no such curve, though single readings can be large or run the other way;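 further: % of control where 0% means no effect; miR-21 action dims this reporter so a rising signal means less miR-21 action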
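HeLa cells endogenously expressing miR-21, stably carrying CMV-driven firefly luciferase with a downstream miR-21 binding site, 2000 cells/well. Titrations up to approximately 40 uM, 48 hours; luciferase luminescence read.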
ASM inhibitor: human S-ASM enzyme inhibition | Potency, µM (doses to about 57.5 µM), for the others: at the highest dose activity change, negative = inhibition, most hits filed as inhibitors | placental ASM, HMU-PC fluorogenic substrate, 60 min | 340,000 tested, 0.006% active; further: potency means the concentration at half of the fitted maximal effect
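Steps: dispense placental human ASM, pin compound, wait 10 min at room temperature, add HMU-PC0 substrate at 9 uM final, incubate 60 min at 37 °C, add stop solution raising pH to 10, read fluorescence.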
Mito fusion act: mitochondrial division inhibition or fusion activation; S. cerevisiae fusion-defective mutant growth rescue, CellTiterGlo 48 h; Potency, µM (titrated, usually from 46.1 µM), without a hit: at the top dose growth rescue (activation), most hits filed as activators; 320,000 tested, 0.23% active; further: potency means the concentration at half of the fitted maximal effect; % of control where 0% means no effect; nearly all actives have a fitted effect of over 45% in size
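S. cerevisiae fusion-defective temperature-sensitive mutants (e.g. fzo1-1, mgm1-5) grown 48 h at 37C in YPEG (ethanol/glycerol non-fermentable) medium with 23 nl compound per well; growth rescue read as CellTiterGlo luminescence.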
ERG-DNA inh: inhibitors of human ERG Ets domain-DNA interaction | P11308 | fluorescence polarization, His-ERG Ets domain / labelled DNA | Potency, µM (highest dose often 76.9 µM), inactives show at the top dose FP activity, negative = inhibition, most hits filed as inhibitors | 370,000 tested, 0.028% active | AID 624246; active means well fitted inhibition curve with a large enough effect in the polarisation, with a control signal flat; inconclusive means small, poorly fitted or top-dose-only effect, or effect the other way, or a change in a side signal; inactive means no such curve, though single readings can be large or run the other way; the % refers to the polarisation;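 further: polarization taken with two DNA probes labelled with fluorescein and Texas red; potency means the concentration at half of the fitted maximal effect; % of control where 0% means no effect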
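His-tagged ERG Ets domain (1 uM in the protein solution; 300mM KCl, 50mM Tris-HCl, 1mM EDTA, 1mM DTT, pH 7.5) received compound, then a probe mix of 5 nM fluorescein-DNA and 100nM Texas-615-DNA. Fluorescence polarization was read for both dyes.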
RXFP1 ag: activates the human relaxin receptor RXFP1; Q9HBX9; HEK293T-RXFP1 cAMP TR-FRET, 30 min; response scale: percent of porcine relaxin response, buffer zero; Potency, µM (highest dose often 57.5 µM), for inactives: at the highest dose activation, actives largely listed as activators; 370,000 tested, 0.3% active; AID 2676; further: potency means the concentration at half of the fitted maximal effect; on the % scale 0 is the no-effect control and ±100 the full control effect; nearly all actives have a fitted effect of over 60% in size
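HEK293 cells stably expressing RXFP1, treated 30 min at 37C with compounds plus PDE4 inhibitor Ro 20174; cAMP measured by HTRF TR-FRET. Normalized to buffer and 29 nM porcine relaxin; EC50 by Hill fit.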
RXFP1 antagonist: blocks the human relaxin receptor RXFP1. Q9HBX9. 350,000 tested, 0.59% active. HEK293-RXFP1, relaxin-stimulated cAMP HTRF, 30 min; stronger effect = lower value. activity change, negative = inhibition, % at 57.5 µM;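 active means activity change of -60% or lower, but not beyond a set lower limit; inconclusive means change between -60% and -40%, or beyond the set limit; inactive means change above -40%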; further: on the % scale 0 is the no-effect control and ±100 the full control effect
* = called active by the depositor; ? = inconclusive; . = not tested or not shown; ! = repeats disagree. An excerpt weighted towards active compounds, which were near 0.72% of everything screened. Unless noted, the call rests on the fitted dose curve; in most records, active means well fitted curve in the direction sought with a large enough effect; inconclusive means small, poorly fitted or top-dose-only effect, or another doubt; inactive means no such curve, though single readings can be large; an effect the other way counts as inactive or inconclusive.

entry | smiles | Mito fusion act | miR-21 FLuc | ERG-DNA inh
1 | O=C(Nc1ccc2nc(SCC(=O)N3CCCC3)sc2c1)c1cccc(Cl)c1 | . | ? | -0.1%
2 | CCN(CC)S(=O)(=O)c1ccc(NC(=S)Nc2ccccc2)cc1 | -7.4% | 0.1% | -0.3%
3 | CCN(CC)S(=O)(=O)c1ccc(C(=O)Nc2nnc(NC(=S)Nc3ccccc3)s2)cc1 | 5.7% | -11.7% | 4.4%
4 | Cc1ccc(O)c(C(=O)c2cc(C#N)c(=O)n(Cc3ccccc3)c2)c1 | -10.5% | -1.2% | -0.5%
5 | O=C(Nc1ccc(S(=O)(=O)N2CCOCC2)cc1)c1cc(Cl)ccc1NS(=O)(=O)c1ccc(Cl)s1 | . | . | .
6 | C[C@H]1C[C@H]2[C@@H]3CCC4=CC(=O)C=C[C@]4(C)[C@@]3(Cl)[C@@H](O)C[C@]2(C)[C@@]1(O)C(=O)CO | 1.6% | -30.5% | -15.3%
7 | COc1cc(C(C)=O)ccc1OCCCN1CCC(c2noc3cc(F)ccc23)CC1 | . | . | .
8 | CC(C)n1nc(-c2cc3cc(O)ccc3[nH]2)c2c(N)ncnc21 | . | . | .
9 | Cc1cnc2cc(Cl)ccc2c1SCC(=O)O | -10.4% | 0.0% | -8.7%
10 | O=C(O)CSc1ccnc2cc(Cl)ccc12 | 2.4% | -1.7% | 5.8%
11 | CC(C)=CCNc1ncnc2c1ncn2[C@@H]1O[C@H](CO)[C@@H](O)[C@H]1O | . | . | .
12 | C=CCNc1ncnc2c1ncn2C1OC(CO)C(O)C1O (stereo unspecified) | 1.8% | -15.0% | -6.9%

entry | RXFP1 ag | RXFP1 antagonist | ASM inhibitor
1 | 1.7% | -34.2 | .
2 | -1.8% | 7.0 | 0.2%
3 | -0.5% | -84.9* | -21.3%
4 | 0.6% | -90.3* | 9.3%
5 | . | -34.4 | .
6 | 1.8% | -69.9* | 3.4%
7 | . | -9.9 | .
8 | . | -37.8 | .
9 | 20.7% | 11.4 | -2.0%
10 | 12.6µM* | 20.4 | 7.3%
11 | . | 15.3 | .
12 | 25.1µM* | 0.3 | -0.9%

The results go on:
entry | smiles | Mito fusion act | miR-21 FLuc | ERG-DNA inh
13 | Nc1ncnc2c1ncn2C1OC(CO)C(O)C1O (stereo unspecified) | -13.0% | 5.0% | -0.2%
14 | CCC(C(=O)OCCN1CCOC(c2ccccc2)C1C)c1ccccc1 (stereo unspecified) | . | . | .
15 | O=C(Cn1c(=O)nc(-c2ccccc2)c2ccccc21)NCc1ccc(F)cc1 | . | -3.5% | -1.7%
16 | O=C(Cc1ccc(F)cc1)NCCc1csc2nc(-c3ccccc3F)nn12 | . | -2.7% | -3.4%
17 | O=C(COc1ccc(Cl)cc1Cl)NCC1(N2CCOCC2)CCCCC1 | . | . | 2.3%
18 | Cc1ccc(C(C)C)c(OCC(=O)NCC2(N3CCOCC3)CCCCC2)c1 | . | 23.5% | -0.9%
19 | Cc1cc(C)n2c(SC/C(O)=C(\C#N)c3nc4ccccc4[nH]3)nnc2n1 | -1.3% | -4.1% | 1.4%
20 | Cc1cccc(Nc2nnc(SCC(O)=C(C#N)c3nc4ccccc4[nH]3)s2)c1 | . | . | 6.8%
21 | CC1CCCN(C(=O)CNS(=O)(=O)c2cccs2)C1 (stereo unspecified) | -0.8% | -13.7% | 20.1%
22 | Cc1ccc(-c2cc(C(=O)NCc3cnn(C)c3)c3cc(Br)ccc3n2)cc1 | -1.7% | -22.3% | -14.5%
23 | O=C(O)c1cc(-c2ccc3c(c2)OCO3)nc2ccc(Br)cc12 | 29.3% | -33.0% | 4.0%
24 | COc1ccccc1/C=C/c1nc(C#N)c(N2CCN(C)CC2)o1 | . | -21.6% | -0.6%

entry | RXFP1 ag | RXFP1 antagonist | ASM inhibitor
13 | 14.1µM* | 1.2 | -2.9%
14 | . | -37.5 | .
15 | -0.5% | 17.8 | .
16 | 4.7% | -7.6 | .
17 | . | -15.8 | -5.0%
18 | 3.5% | -110.8* | .
19 | 1.3% | -12.6 | -4.0%
20 | . | -81.1* | 20.1%
21 | -1.3% | 7.9 | 1.0%
22 | 22.4µM*! | -2.4 | 5.5%
23 | 15.8µM* | 25.0 | 31.9%
24 | 12.9% | . | .

(continued)
entry | smiles | Mito fusion act | miR-21 FLuc | ERG-DNA inh
25 | O=C(CN1C(=O)c2ccccc2S1(=O)=O)NC(Nc1ccccc1F)C(Cl)(Cl)Cl (stereo unspecified) | -3.4% | 0.2% | 5.4%
26 | CCC(C)NC(=O)Cn1c(=O)n(CCCCCC(=O)NCc2ccccc2Cl)c(=O)c2sccc21 (stereo unspecified) | . | -9.0% | 4.1%
27 | CC(=O)c1ccc(NC(=O)Nc2ccc3c(c2)N(C)C(=O)CS3)cc1 | -2.5% | 16.1% | 4.0%
28 | Cc1ccc(NC(=O)Cn2c(=O)n(-c3ccc(C)cc3)c(=O)c3ccc(C(=O)NCc4ccccc4Cl)cc32)cc1 | . | 0.1% | -2.1%
29 | COc1ccc(Nc2nc(N)c(C(=O)c3ccc(OC)cc3)s2)cc1 | -10.6% | 14.8% | 3.2%
30 | CCOc1ccc(Nc2nc(N)c(C(=O)c3ccccc3Cl)s2)cc1 | . | 24.3% | 1.4%
31 | Cc1ccc(C)c(N(C)C(=O)c2ccc3c(=O)n4c(nc3c2)CCCCC4)c1 | 1.9% | -1.3% | 10.0%
32 | CC(=O)/C=C/C=C1/C2CCC(C2)C1(C)C (stereo unspecified) | . | . | .
33 | CCOc1c(Cl)cc(CNc2ccc(N3CCCC3)cc2)cc1OC | 0.2% | 3.1% | 7.3%
34 | Cc1ccc(N2C(=O)CS(=O)(=O)C23C(=O)N(Cc2ccccc2C)c2ccccc23)cc1Cl (stereo unspecified) | . | -6.8% | -6.9%
35 | COc1ccc(N2CC(NS(=O)(=O)c3cccs3)CC2=O)cc1OC (stereo unspecified) | -7.4% | . | 0.7%
36 | Cc1ccccc1N(C)S(=O)(=O)c1nnc(NC(=O)C(C)C)s1 | . | -1.8% | 0.9%

entry | RXFP1 ag | RXFP1 antagonist | ASM inhibitor
25 | 2.6% | -105.1* | -2.8%
26 | -0.4% | 3.8 | .
27 | 0.8% | -69.8* | -26.6%
28 | 7.6% | . | .
29 | 0.9% | -17.4 | -14.4%
30 | 25.1µM* | -22.4 | .
31 | -3.1% | -102.1* | 0.2%
32 | . | -19.9 | .
33 | 0.1% | -75.5* | 68.8%
34 | -1.0% | . | .
35 | -0.7% | -82.1* | 2.4%
36 | -0.7% | 12.6 | .

Some entries already given, reduced to ASM inhibitor, RXFP1 antagonist and Mito fusion act.
nr | Structure | ASM inhibitor | RXFP1 antagonist | Mito fusion act
32 | CC(=O)/C=C/C=C1/C2CCC(C2)C1(C)C (stereo unspecified) | . | -19.9 | .
26 | CCC(C)NC(=O)Cn1c(=O)n(CCCCCC(=O)NCc2ccccc2Cl)c(=O)c2sccc21 (stereo unspecified) | . | 3.8 | .
31 | Cc1ccc(C)c(N(C)C(=O)c2ccc3c(=O)n4c(nc3c2)CCCCC4)c1 | 0.2% | -102.1* | 1.9%
35 | COc1ccc(N2CC(NS(=O)(=O)c3cccs3)CC2=O)cc1OC (stereo unspecified) | 2.4% | -82.1* | -7.4%

Next records follow:
entry | smiles | Mito fusion act | miR-21 FLuc | ERG-DNA inh
37 | Cc1ccccc1N(C)S(=O)(=O)c1nnc(NC(=O)c2ccccc2F)s1 | 5.62µM* | -6.8% | 8.0%
38 | COc1ccc(CNC(=O)c2ccc3c(=O)n(CCCN4CCCC4=O)c(=S)[nH]c3c2)cc1 | -11.6% | 8.3% | -7.2%
39 | COc1ccccc1CNC(=O)c1ccc2c(=O)n(CCCN3CCCC3=O)c(=S)[nH]c2c1 | 2.5% | -1.0% | 1.3%
40 | Cc1ccc(CNC(=O)c2ccc3c(=O)n(CCCN4CCCC4=O)c(=S)[nH]c3c2)cc1 | -0.9% | -3.6% | 5.4%
41 | CCCn1c(=S)[nH]c2cc(C(=O)N(CCO)Cc3ccccc3)ccc2c1=O | -4.9% | 13.9% | 3.7%
42 | O=C(NCc1ccccc1)c1ccc2c(=O)n(CCCN3CCCC3=O)c(=S)[nH]c2c1 | -2.0% | 1.3% | -10.8%
43 | CCS(=O)(=O)c1ncc(Cl)c(C(=O)N2CCN(c3cccc(Cl)c3)CC2)n1 | . | ? | 4.2%
44 | COc1ccccc1C(=O)N(c1ccc(C)cc1)S(=O)(=O)c1ccc(Cl)cc1 | . | ? | 4.4%
45 | CCCCCNC(=O)c1ccc2c(=O)n(CCCOCC)c(=S)[nH]c2c1 | 0.6% | 0.0% | 5.1%

entry | RXFP1 ag | RXFP1 antagonist | ASM inhibitor
37 | 6.7% | -25.0 | -2.8%
38 | 5.8% | -116.5* | 10.9%
39 | 9.9% | -64.8* | 8.2%
40 | 1.7% | -0.5 | -1.2%
41 | 3.1% | -74.7* | -10.0%
42 | 2.1% | -73.8* | 4.0%
43 | -1.3% | ? | .
44 | 1.0% | -8.0 | .
45 | ? | -5.0 | -1.9%
